One assay concerns the target IDH1^R132C (Homo sapiens, UniProt O75874, R132C). The assay can be described thus: NADPH depletion assay, IDH1 R132C. To be noted: read-out: IDH1^R132C IC50. How it is done: (§1) IDH mutated enzyme activity converting alpha-ketoglutarate to 2-hydroxyglutaric acid is measured using a NADPH depletion assay. In the assay the remaining cofactor is measured at the end of the reaction with the addition of a catalytic excess of diaphorase and resazurin, to generate a fluorescent signal in proportion to the amount of NADPH remaining. IDH1 WT enzyme as well as mutated isoforms IDH1^R132H, IDH1^R132C, and IDH^2R172K enzymes are commercially available proteins (see e.g. Sino Biological, Abcam, Active Motif or Creative BioMart).
IDH1^R132H homodimer enzyme are diluted to 8 nM, in 10 μL of Assay Buffer (150 mM NaCl, 50 mM Tris-HCl pH 7.6, 10 mM MgCl2, 0.001% Triton X-100, 4 mM β-mercaptoethanol); 0.2 uL of test compound, previously serially diluted 1 to 3, >10 experimental points from 1 mM in DMSO, is added and the mixture is incubated for 15 minutes at room temperature. The reaction is started with the addition of 10 μL of Substrate Mix (12 uM NADPH, 3.4 mM alpha-ketoglutarate in Assay Buffer) and the mixture is incubated for 60 minutes at room temperature. The reaction is terminated with the addition of 5 μl of Detection Buffer (100 μg/mL diaphorase, 30 μM resazurin, in IX Assay Buffer), and is incubated for 15 minute before reading on a ViewLux as platereader at Ex544/Em590. […]

By UniProt entry, the sequences of proteins in these tests, tags left out.
UniProt O75874, whole entry R132C: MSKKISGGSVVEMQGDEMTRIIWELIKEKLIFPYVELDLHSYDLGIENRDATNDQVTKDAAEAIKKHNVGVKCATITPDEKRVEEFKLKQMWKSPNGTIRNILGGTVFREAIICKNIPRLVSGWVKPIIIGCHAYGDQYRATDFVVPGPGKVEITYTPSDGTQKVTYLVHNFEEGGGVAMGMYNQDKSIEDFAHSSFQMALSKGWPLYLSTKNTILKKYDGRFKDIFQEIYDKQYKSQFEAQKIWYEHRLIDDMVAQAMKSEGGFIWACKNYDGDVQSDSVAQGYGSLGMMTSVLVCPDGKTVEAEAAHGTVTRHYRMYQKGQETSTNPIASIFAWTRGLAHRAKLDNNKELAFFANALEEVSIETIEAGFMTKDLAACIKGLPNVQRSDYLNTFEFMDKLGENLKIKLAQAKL
UniProt O75874, whole entry R132H: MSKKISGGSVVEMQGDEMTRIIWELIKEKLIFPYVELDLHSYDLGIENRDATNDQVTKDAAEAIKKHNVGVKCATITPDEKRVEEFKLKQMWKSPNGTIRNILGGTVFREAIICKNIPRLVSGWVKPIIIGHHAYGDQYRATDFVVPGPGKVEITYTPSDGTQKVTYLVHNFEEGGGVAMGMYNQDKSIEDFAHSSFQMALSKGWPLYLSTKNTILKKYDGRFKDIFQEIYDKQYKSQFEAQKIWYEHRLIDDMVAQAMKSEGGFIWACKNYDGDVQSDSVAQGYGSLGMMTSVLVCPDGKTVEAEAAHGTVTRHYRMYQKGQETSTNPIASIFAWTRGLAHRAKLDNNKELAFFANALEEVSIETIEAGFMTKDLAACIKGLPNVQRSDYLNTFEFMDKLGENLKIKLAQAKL

Assay [1] has as its target IDH1^R132H homodimer enzyme (Homo sapiens, UniProt O75874, R132H). The assay can be described thus: NADPH depletion assay, IDH1 R132H. The conditions noted are these: read-out: IDH1^R132H IC50. Here is the method:
as §1
IDH1^R132H homodimer enzyme are diluted to 8 nM, in 10 μL of Assay Buffer (150 mM NaCl, 50 mM Tris-HCl pH 7.6, 10 mM MgCl2, 0.001% Triton X-100, 4 mM β-mercaptoethanol); 0.2 uL of test compound, previously serially diluted 1 to 3, >10 experimental points from 1 mM in DMSO, is added and the mixture is incubated for 15 minutes at room temperature. The reaction is started with the addition of 10 μL of Substrate Mix (12 uM NADPH, 3.4 mM alpha-ketoglutarate in Assay Buffer) and the mixture is incubated for 60 minutes at room temperature. The reaction is terminated with the addition of 5 μl of Detection Buffer (100 μg/mL diaphorase, 30 μM resazurin, in IX Assay Buffer), and is incubated for 15 minute before reading on a ViewLux as platereader at Ex544/Em590.

pIC50: −log10 of the molar value.

A word on the pIC50: it is the IC50 on a negative log10 scale, so that one unit is a factor of ten. As to `C[C@H](Nc1ncc2ccc(=O)n(CC(C)(C)CO)c2n1)c1ccc(-c2cnn(C)c2)cc1`, the negative-log IC50 (pIC50) is 6.69 on IDH1^R132C and 6.40 in assay [1].

The record behind these values is US12018023B2 (NERVIANO MEDICAL SCIENCES S.R.L., priority 2018, dated 2024).
